# PubChem BioAssay AID1984 (Sanford-Burnham Center for Chemical Genomics, 2009)
# “And” between values parts separate entries of the source, which are not always exact repeats. Equal values may be shown once. The list shows a part of the results, in another mix than the full data. The source made the active and inactive calls.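 Rule for the calls: active = EGFP signal decrease of at least 30% at 10 µM or well 3 SD below plate mean, unless failing retest; inactive = the rest, including hits failing retest or dose response.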
# Molecular target: p/CIP-EGFP fusion (nuclear receptor coactivator 3, mouse) (UniProt Q05BA5)
# Assay: compounds lowering mouse p/CIP (NCOA3) protein levels – fluorescence, F442A cells, EGFP fusion, primary screen (AID 1984)
# Conditions: 16 h, at 10 µM, hits give high values
row,Structure (SMILES),decrease of EGFP signal
1,CCOc1ccc(C2=NCC(CBr)S2)cc1 (centres undefined),inactive: -11.4%
2,O=P1(Nc2nc3ccc(Cl)cc3s2)COc2ccccc2O1 (centres undefined),inactive: -0.3%
3,CC(C)(C)C(=O)NC(Sc1ccccc1)C(Cl)(Cl)Cl (centres undefined),inactive: 0%
4,CC(=O)c1ccc(N2CC2c2ccncc2)cc1 (centres undefined),inactive: -3.6%
5,C[C@@H]1C=CCP(=O)(Oc2ccccc2)O1 (some centres undefined),inactive: -3.7%
6,C[C@H]1OP(=O)(Oc2ccccc2)C[C@@H]2O[C@@H]21 (some centres undefined),inactive: 1.7%
7,CC(=O)Nc1ccc(Oc2c([N+](=O)[O-])cc([N+](=O)[O-])cc2[N+](=O)[O-])cc1,inactive: 4.4%
8,CC(=O)Nc1ccc([As](=O)(O)O)c(O)c1,inactive: -1.9%
9,O=C(NC1CCS(=O)(=O)C1)NP(=S)(Oc1ccccc1)Oc1ccccc1 (centres undefined),inactive: 5.7%
10,CCNC(=S)/N=C(\N)N[N+](=O)[O-],inactive: 12%
11,Cc1ccc(NP(=O)(Oc2cccc(C)c2)Oc2cccc(C)c2)nc1,inactive: 14.3%
12,CCOC(=O)NC(Sc1ccccc1)C(Cl)(Cl)Cl (centres undefined),inactive: -1%
13,c1ccc(-c2nn[nH]n2)c(-c2nn[nH]n2)c1,inactive: 0.7%
14,CC(=O)NC(SC(=S)N(CC(C)C)CC(C)C)C(Cl)(Cl)Cl (centres undefined),inactive: 1.8%
15,Cc1ccc(OP(=O)(Nc2ccccn2)Oc2ccc(C)cc2)cc1,inactive: 3.9%
16,COC(=O)c1cc2c(s1)N=C(c1ccccc1)N(C)P2(=O)N1CCOCC1 (centres undefined),inactive: -3%
17,CCC(=O)N1C2C3N(C(=O)CC)C1C1N(C(=O)CC)C(C(N1C(=O)CC)N3C(=O)CC)N2C(=O)CC,inactive: 2.3%
18,O=C(OC1CN2CCC1CC2)c1ccccc1 (centres undefined),inactive: -6.6%
19,CN(C)C(=O)Oc1noc2ccccc12,inactive: 8%
20,O=c1c2cc([N+](=O)[O-])ccc2[nH]c2c([N+](=O)[O-])cc([N+](=O)[O-])cc12,inactive: -16.8%
21,Cc1ccccc1OP(=O)(Nc1ccccn1)Oc1ccccc1C,inactive: 3.9%
22,CN(C)C1(CNC(=O)c2ccc(Cl)c(S(N)(=O)=O)c2)CCCCC1,inactive: 6.4%

row,Structure (SMILES),decrease of EGFP signal
1,O=P(Nc1ccccn1)(c1ccc(Br)cc1)c1ccc(Br)cc1,inactive: 11.9%
2,C[C@H]1OP(=O)(Oc2ccccc2)[C@H](O)[C@H](O)[C@H]1N=[N+]=[N-] (some centres undefined),inactive: -2.6%
3,O=P(Nc1nc2ccccc2s1)(c1ccccc1)c1ccccc1,inactive: -5.3%
4,CC(=O)NC(SC(=S)N(C)C)C(Cl)(Cl)Cl (centres undefined),inactive: 3%
5,O=[N+]([O-])c1ncn(CCn2cnc([N+](=O)[O-])n2)n1,inactive: -3.7%
6,O=[N+]([O-])c1ccc(O)c(/C=N/Nc2ccc([N+](=O)[O-])cc2[N+](=O)[O-])c1,inactive: 3.8%
7,O=[As](O)(c1ccccc1)c1ccc(O)cc1,inactive: -0.3%
8,Nc1ccc([As](=O)(O)c2ccc([N+](=O)[O-])cc2)cc1,inactive: -2.2%
9,C(Cc1nn[nH]n1)Cc1nn[nH]n1,inactive: 0.5%
10,O=C(OC1CN2CCC1CC2)c1cccc(Cl)c1 (centres undefined),inactive: -10.6%
11,O=P(Nc1nccs1)(c1ccccc1)c1ccccc1,inactive: 1%
12,CC(C)C(=O)NC(Sc1ccccc1)C(Cl)(Cl)Cl (centres undefined),inactive: -1.4%
13,c1nnnn1CCn1cnnn1,inactive: -10.4%
14,COc1ccc(C2=NCC(CBr)S2)cc1 (centres undefined),inactive: 0.8%
15,CC(=O)N1C2C3N(C(C)=O)C1C1N(C(C)=O)C(C(N1C(C)=O)N3C(C)=O)N2C(C)=O,inactive: -6.1%
16,O=[N+]([O-])c1cccc2n[nH]nc12,inactive: 1.7%
17,O=[N+]([O-])c1cc([N+](=O)[O-])c(CCNc2ccccc2)c([N+](=O)[O-])c1,inactive: -1.2%
18,CCc1nc2c(n1)c1c(non1O)c1c2no[n+]1[O-],inactive: -30.1%
19,Cc1ccc(NP(=O)(Oc2ccccc2)Oc2ccccc2)nc1,inactive: 13.9%
20,C[N+]1=C2C=CC=CC=C2SC12C([N+](=O)[O-])=CC([N+](=O)[O-])=C[C-]2[N+](=O)[O-] (centres undefined),inactive: -1.7%
21,Nc1ccc([As](=O)(O)c2ccc(N)cc2)cc1,inactive: 4.7%
22,CCN(/C(=N/P(=O)(N1CCOCC1)N1CCOCC1)N1CCOCC1)c1ccc(OC)cc1,inactive: 8.9%

row,Structure (SMILES),decrease of EGFP signal
1,CN(C)C(=O)OCCc1n(C)cc[n+]1C,inactive: -11.1%
2,CC(C)=N/N=C(\N)N[N+](=O)[O-],inactive: -2.2%
3,CC1CCN(C(=O)Oc2c(Cl)cc(Cl)c3cccnc23)CC1,inactive: -14.1%
4,O=C(Nc1cc([As](=O)(O)O)ccc1O)c1ccccc1,inactive: -0.6%
5,CC(C)(C)C(=O)NC(Sc1ccncn1)C(Cl)(Cl)Cl (centres undefined),inactive: -0.6%
6,O=[N+]([O-])c1ncn(CCn2ncnc2[N+](=O)[O-])n1,inactive: 10.9%
7,O=[N+]([O-])c1cccc(NC2=NCC(CBr)S2)c1 (centres undefined),inactive: -12.6%
8,O=C(O)CNc1ccc([As](=O)(O)O)cc1,inactive: 0%
9,O=C(O)c1ccccc1[As](=O)(O)O,inactive: 4%
10,CC(=O)Nc1ccc([As](=O)(O)O)cc1,inactive: 0%
11,O=P(Nc1nc2ccc(Cl)cc2s1)(c1ccccc1)c1ccccc1,inactive: -2%
12,Cc1ccc(NP(=O)(Oc2ccccc2F)Oc2ccccc2F)nc1,inactive: -4.9%
13,CCOP(=O)(Nc1ccccc1)OCC,inactive: 6.6% and inactive: 4%
14,Cc1cc(SC(NC(=O)c2ccc(F)cc2)C(Cl)(Cl)Cl)ncn1 (centres undefined),inactive: -3.6%
15,O=[N+]([O-])c1cc([N+](=O)[O-])c(CCN2CCOCC2)c([N+](=O)[O-])c1,inactive: -10.9%
16,CCN(N=Nc1nonc1N)c1nonc1N,inactive: -1.1%
17,Nc1cccc2ccc([As](=O)(O)O)cc12,inactive: -12.3%
18,NC(=O)c1cc([N+](=O)[O-])cc([N+](=O)[O-])c1N,inactive: 0.5%
19,Cc1ccc(N/C(=N/P(=O)(N2CCOCC2)N2CCOCC2)N2CCOCC2)cc1,inactive: -0.2%
20,Cc1ccc(OP(=O)(Nc2nccs2)Oc2ccc(C)cc2)cc1,inactive: 1.6%
